# Laboratory results: US20250115583A1, “BICYCLIC INDAZOLE GLUCOCORTICOID RECEPTOR ANTAGONISTS” (Corcept Therapeutics Incorporated, priority 2021, published 2025)
# Sequences of proteins named here, by UniProt entry; tags and fusion partners are left off.
# UniProt P04150, whole entry: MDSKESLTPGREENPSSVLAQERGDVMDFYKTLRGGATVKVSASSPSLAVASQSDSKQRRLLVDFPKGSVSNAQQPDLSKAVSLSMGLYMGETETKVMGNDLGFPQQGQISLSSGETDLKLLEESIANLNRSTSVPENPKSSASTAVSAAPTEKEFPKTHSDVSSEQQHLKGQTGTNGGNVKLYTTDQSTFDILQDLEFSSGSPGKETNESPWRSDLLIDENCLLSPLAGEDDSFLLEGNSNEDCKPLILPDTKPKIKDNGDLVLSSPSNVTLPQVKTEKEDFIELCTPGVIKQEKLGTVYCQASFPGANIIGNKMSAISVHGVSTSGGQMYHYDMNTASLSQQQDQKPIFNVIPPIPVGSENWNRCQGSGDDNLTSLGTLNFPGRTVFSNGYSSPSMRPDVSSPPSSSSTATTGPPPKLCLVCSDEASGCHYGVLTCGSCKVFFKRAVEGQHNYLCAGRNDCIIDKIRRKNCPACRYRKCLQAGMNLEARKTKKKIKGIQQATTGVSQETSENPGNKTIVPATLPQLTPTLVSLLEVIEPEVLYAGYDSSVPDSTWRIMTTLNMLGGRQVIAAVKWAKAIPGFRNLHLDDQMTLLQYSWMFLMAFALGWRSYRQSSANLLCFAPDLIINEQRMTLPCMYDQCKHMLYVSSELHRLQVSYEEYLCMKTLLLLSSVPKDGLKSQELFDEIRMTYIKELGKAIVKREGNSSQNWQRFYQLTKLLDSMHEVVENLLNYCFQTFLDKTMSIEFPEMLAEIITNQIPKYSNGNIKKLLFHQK
# pKi: −log10 of the molar value.
# Target: glucocorticoid receptor (Homo sapiens (Human), UniProt P04150)
# Experiment: HepG2 TAT assay: inhibition of dexamethasone-induced tyrosine aminotransferase (TAT) activity
# Assay type: cell-based
# Settings: read-out: HepG2 TAT Ki; HepG2 cells, challenge of 100 nM dexamethasone, 18-24 hr; IC50 converted to Ki by Cheng and Prusoff equation
row,pKi,SMILES
1,6.70,Cc1cc2c(cnn2-c2ccc(F)cc2)cc1[C@@]12CN(S(=O)(=O)c3cnn(C)n3)C[C@@H]1[C@H]2c1cccc(C(F)(F)F)c1 (relative stereo)
2,6.70,Cc1cc2c(cnn2-c2ccc(F)cc2)cc1[C@@]12CN(S(C)(=O)=O)C[C@@H]1[C@H]2c1cccc(C(F)(F)F)c1 (relative stereo)

# More lines, now with the values behind:
row,SMILES,pKi
1,Cc1cc2c(cnn2-c2ccc(F)cc2)cc1[C@@]12CN(S(=O)(=O)c3cnn(C)n3)C[C@@H]1[C@@H]2c1ccc(C(F)(F)F)cc1 (relative stereo),6.89
2,Cc1cc2c(cnn2-c2ccc(F)cc2)cc1[C@@]12CN(S(=O)(=O)c3cnn(C)n3)C[C@@H]1[C@@H]2c1cccc(C(F)(F)F)c1 (relative stereo),7.52
3,Cc1cc2c(cnn2-c2ccc(F)cc2)cc1[C@@]12CN(S(=O)(=O)c3cnn(C)n3)C[C@@H]1[C@H]2c1ccc(C(F)(F)F)cc1 (relative stereo),7.30
